Yeast mating assay B: variants of the scFv Ab-14

Source: Li et al. 2023 (doi:10.1038/s41467-023-39022-2), MIT Lincoln Laboratory and A-Alpha Bio; data file from the FLAb repository.

All variants were tested on one target, the spike HR2 peptide PDVDLGDISGINAS (SARS-CoV-2).

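Designed CDR sequences, proposed from the first random library and measured here. Group labels follow the data file (Ctrl: baseline library sampled from a position-specific scoring matrix, with some repeated check sequences; GP: Gaussian process model; HC: hill climbing; Gen: genetic algorithm; Gibbs: Gibbs sampling; a sequence that several methods proposed may carry one label only). The assay is AlphaSeq: two haploid yeast populations carry antibody and antigen on their surface. Pairs that bind mate more often; barcode pairs of the diploids are counted by sequencing. Each replicate has its own calibration line, from reference interactions of the BCL2 family. Mating was done six times.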

Parent scFv Ab-14: VH joined to VL by three GGGGS repeats. Changes lie in the light chain CDRs alone.
VH: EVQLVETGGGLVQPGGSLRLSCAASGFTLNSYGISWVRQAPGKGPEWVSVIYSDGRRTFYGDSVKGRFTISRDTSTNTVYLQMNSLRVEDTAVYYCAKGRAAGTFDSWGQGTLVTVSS
VL: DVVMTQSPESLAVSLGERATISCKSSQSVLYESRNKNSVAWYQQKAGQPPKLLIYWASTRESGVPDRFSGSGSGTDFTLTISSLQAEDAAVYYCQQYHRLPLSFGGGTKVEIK

Positions count from residue 1 of the parent VL; K24Y puts Y in place of K.
Variants here have at most six changes.
Numbers give log10(Kd / nM), so 0 is 1 nM and 3 is 1 µM. Smaller is tighter.
Averages over replicates are reported, and they cover detected replicates only.
An entry "nd" has no value in the source: the pair was not observed among the diploids in that replicate. This suggests poor binding but is not conclusive.
Background: pairings of all light chain designs with three empty control strains gave a value in 4% of cases (median 2.64, 5th percentile 1.59). Values in that range, when seen in few replicates, are hard to tell from nonspecific mating. For each scFv, signals with the empty controls are counted beside the result.
Values of this round are not directly comparable with the first-round values of the same sequences.
The authors averaged sequences with at least three values out of six and counted those with two or fewer as poor binders.

With K24Y/E32V/N35A/W56A/S58Y/T59D [Ctrl] the result was nd, nd, nd, nd, nd, nd (controls 1 of 18). With S25M/S26D/S62R/H98G [Ctrl] the result was 0.53, 0.44, 0.33, 0.22, 0.31, 0.49 (mean 0.39; controls 2 of 18). The variant S25L/S28G/V29H/W56N [GP_Gen] gave -0.03, 0.45, -0.19, -0.03, -0.05, 0.02 (mean 0.03; controls 1 of 18). The variant K24H/Q27P/L30E/W56N/T59K [GP_HC] showed nd, nd, nd, nd, nd, nd (controls 0 of 18). The variant S25V/V29F/W56G/Q96A [GP_HC] gave -0.09, 0.08, 0.32, -0.18, -0.21, -0.03 (mean -0.02; controls 0 of 18).

With S25L/S26M/V29W/L30G/W56N/T59Q [GP_Gen] the result was 0.15, 0.12, -0.05, 0.11, 0.18, 0.21 (mean 0.12; controls 1 of 18). The variant S25L/S26Y/W56H [GP_Gen] gave 0.31, 0.18, 0.22, 0.04, 0.42, 0.09 (mean 0.21; controls 1 of 18). The variant Q27I/V29Y/K36Q/W56E [GP_HC] showed 0.34, 0.31, 0.36, 0.34, 0.28, 0.33 (mean 0.33; controls 2 of 18). The variant W56F/E61Y [Ctrl] gave 2.11, 2.53, nd, 1.81, 1.85, 1.49 (mean 1.96; controls 0 of 18). The variant S25L/V29E/W56E/E61C [GP_Gen] gave 0.16, 0.25, 0.18, -0.01, 0.05, 0.32 (mean 0.16; controls 3 of 18).

The variant W56Y/P101V [Ctrl] gave nd, nd, nd, nd, nd, nd (controls 0 of 18). The variant Y31R/R34N/S62Y/R99G [Ctrl] showed nd, nd, nd, nd, nd, nd (controls 0 of 18). The variant S33R/Q95G [Ctrl] showed nd, nd, nd, nd, nd, nd (controls 0 of 18). For S25L/S26Q/S38A/W56E [GP_Gen], the assay gave 0.11, -0.38, -0.29, -0.42, -0.44, -0.27 (mean -0.28; controls 0 of 18). The variant W56K/A57G/L100S [Ctrl] showed nd, nd, nd, nd, nd, nd (controls 0 of 18).

With S26C/Y31E [Ctrl] the result was 1.96, 2.45, nd, 1.48, 0.95, 1.42 (mean 1.65; controls 1 of 18). For S25L/W56E/A57G [GP_Gen], the assay gave -0.44, -0.30, -0.64, -0.83, -0.75, -0.27 (mean -0.54; controls 0 of 18). For Q27D/W56S [Ctrl], the assay gave 0.18, -0.01, 0.09, 0.05, 0.19, 0.52 (mean 0.17; controls 0 of 18). The variant Y31E/Q96W [Ctrl] gave nd, nd, nd, nd, nd, nd (controls 0 of 18). With S25M/V29Q/W56N [GP_Gen] the result was 0.40, 0.00, 0.01, -0.35, -0.01, 0.01 (mean 0.01; controls 0 of 18).

With S25L/N37E/W56K/S62F [Ctrl] the result was 0.80, 0.69, 0.69, 0.64, 0.85, 1.33 (mean 0.83; controls 2 of 18). The variant S25F/K36S/W56N/S58Q/E61L/S62W [GP_Gibbs] showed 0.41, 0.49, 0.08, 0.39, 0.52, 0.31 (mean 0.37; controls 0 of 18). The variant V29Q/R34E/W56S/S103I [Ctrl] showed 1.19, 0.65, 0.93, 0.57, 0.78, 1.21 (mean 0.89; controls 0 of 18). For N35Y/W56Q [Ctrl], the assay gave 0.89, 0.35, 0.23, 0.56, 0.45, 0.35 (mean 0.47; controls 0 of 18). With S25L/S26Q/V29Q/L30P/W56N [GP_Gen] the result was -0.23, -0.17, -0.30, -0.41, -0.27, -0.11 (mean -0.25; controls 0 of 18).

The variant S28G/E32F [Ctrl] showed nd, nd, nd, nd, nd, nd (controls 0 of 18). The variant S25M/Y31M/S33M/K36G/W56N/S62E [GP_Gibbs] showed -0.03, -0.15, -0.29, -0.12, -0.34, -0.04 (mean -0.16; controls 0 of 18). The variant V29L/E32L/S33H/W56E/L100H [Ctrl] gave 0.98, 1.29, 1.07, 1.13, 1.38, 1.96 (mean 1.30; controls 1 of 18). The variant W56S/L100T [Ctrl] showed nd, nd, nd, nd, nd, nd (controls 0 of 18). For S25L/L30P/S38N/W56D [GP_Gen], the assay gave -0.44, -0.47, -0.55, -0.58, -0.61, -0.45 (mean -0.52; controls 1 of 18).

The variant S25L/S33A/W56N [GP_Gen] showed -0.52, -0.70, -0.81, -0.76, -0.43, -0.46 (mean -0.61; controls 1 of 18). With K24R/V29S/W56A/S62E/H98R [Ctrl] the result was 0.15, 0.03, -0.07, -0.12, 0.07, 0.01 (mean 0.01; controls 3 of 18). The variant S25L/S26P/W56G/S62D [GP_Gen] gave 0.04, 0.12, -0.02, -0.04, 0.12, -0.04 (mean 0.03; controls 0 of 18). With S25I/L30D [Ctrl] the result was 1.06, nd, nd, 1.69, 1.76, 1.92 (mean 1.61; controls 1 of 18). With S25L/V29D/S33M/W56E/S58Q/S62V [GP_Gibbs] the result was 0.04, 0.01, -0.05, -0.14, 0.06, -0.02 (mean -0.02; controls 1 of 18).

For S25V/S28Q/V29W/W56N [GP_Gen], the assay gave 0.00, 0.00, -0.23, -0.43, -0.23, -0.29 (mean -0.20; controls 0 of 18). The variant W56S/H98Q/L100I [Ctrl] showed 0.55, 0.52, 1.03, 0.68, 0.64, 0.45 (mean 0.65; controls 0 of 18). For V29Y/W56E/S103M [GP_HC], the assay gave 0.34, -0.11, -0.02, 0.17, 0.14, 0.12 (mean 0.11; controls 0 of 18). The variant S28M/P101M [Ctrl] gave nd, nd, nd, nd, nd, nd (controls 0 of 18). The variant S25M/V29Q/W56N/T59Q [GP_Gen] showed -0.12, -0.07, -0.33, -0.23, -0.19, -0.07 (mean -0.17; controls 1 of 18).

The variant S25V/V29T/S33D/W56N/T59V [GP_Gibbs] gave -0.13, -0.07, -0.02, -0.26, -0.37, -0.13 (mean -0.16; controls 0 of 18). With R34T/K36V/E61P/P101E [Ctrl] the result was nd, nd, nd, nd, nd, nd (controls 0 of 18). The variant S25L/L30M/W56N/E61L [GP_Gen] showed 0.40, 0.14, -0.11, -0.19, -0.06, 0.18 (mean 0.06; controls 1 of 18). The variant R34L/W56H/E61N/S62D [Ctrl] gave 0.75, 0.37, 0.45, 0.44, 0.37, 0.65 (mean 0.50; controls 0 of 18). With R34A/W56D/S62Y/Q95T/S103L [Ctrl] the result was nd, 2.00, 0.77, nd, 1.53, 1.32 (mean 1.41; controls 0 of 18).

With S25L/S26P/S28Q/V29W/W56S/S62E [GP_HC] the result was -0.28, -0.43, -0.50, -0.39, -0.58, -0.12 (mean -0.38; controls 0 of 18). With S25L/V29W/W56G/Q96A [GP_Gen] the result was 0.71, 0.39, 0.35, 0.65, 0.60, 0.70 (mean 0.57; controls 0 of 18). The variant S25L/V29H/W56G/E61L [GP_Gen] gave 0.04, -0.06, -0.16, -0.16, 0.18, -0.02 (mean -0.03; controls 0 of 18). The variant Q27W/V29W/W56G/T59S [GP_HC] showed nd, nd, 0.79, 1.15, 1.02, 1.12 (mean 1.02; controls 0 of 18). The variant S25V/V29F/S38A/W56G/P101C [GP_HC] gave -0.14, 0.13, -0.08, 0.17, -0.15, 0.14 (mean 0.01; controls 0 of 18).

The variant S25V/V29M/Y31I/W56N/S62H/H98E [GP_Gibbs] gave 0.12, -0.33, -0.31, -0.22, -0.13, -0.21 (mean -0.18; controls 0 of 18).

The closing 8 entries, repeated:

changes	group	log10 Kd (nM) by replicate	mean, log10 nM	signal with controls
R34L/W56H/E61N/S62D	Ctrl	0.75, 0.37, 0.45, 0.44, 0.37, 0.65	0.50	0 of 18
R34A/W56D/S62Y/Q95T/S103L	Ctrl	nd, 2.00, 0.77, nd, 1.53, 1.32	1.41	0 of 18
S25L/S26P/S28Q/V29W/W56S/S62E	GP_HC	-0.28, -0.43, -0.50, -0.39, -0.58, -0.12	-0.38	0 of 18
S25L/V29W/W56G/Q96A	GP_Gen	0.71, 0.39, 0.35, 0.65, 0.60, 0.70	0.57	0 of 18
S25L/V29H/W56G/E61L	GP_Gen	0.04, -0.06, -0.16, -0.16, 0.18, -0.02	-0.03	0 of 18
Q27W/V29W/W56G/T59S	GP_HC	nd, nd, 0.79, 1.15, 1.02, 1.12	1.02	0 of 18
S25V/V29F/S38A/W56G/P101C	GP_HC	-0.14, 0.13, -0.08, 0.17, -0.15, 0.14	0.01	0 of 18
S25V/V29M/Y31I/W56N/S62H/H98E	GP_Gibbs	0.12, -0.33, -0.31, -0.22, -0.13, -0.21	-0.18	0 of 18